An excerpt weighted towards active compounds, which were near 3.7% of everything screened.
A549 viability – A549 cytotoxicity, counter-screen for Nrf2 inhibitors; Potency, µM (top dose mostly 46 µM), for the others: at the highest dose activity change, negative = cytotoxicity, most hits filed as inhibitors; 0.16% of 390,000 active; A549 ARE-Fluc cells, CellTiter-Fluor viability, 18-24 h; also: potency is read from the fitted curve at half-maximal effect; % is scaled to controls: 0 for no effect and ±100 for the full control effect
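Cytotoxicity counterscreen: CellTiter-Fluor fluorescence was measured in A549 ARE_Fluc cells after 18-24 h of compound exposure in a concentration series. The subsequent BugLite luminescent read reports ARE-luciferase activity.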
Nrf2 activator – activators of Nrf2 (ARE) signaling; AREc32 ARE-luciferase reporter (MCF7-derived line), luminescence, 24 h; Potency, µM (titrated, usually from 46.1 µM), inactives show at the highest dose activation, actives largely listed as activators; 0.31% of 410,000 active; also: potency is read from the fitted curve at half-maximal effect; % of control where 0% means no effect; nearly all actives have a fitted effect of over 65% in size
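Luciferase luminescence (Steady-Glo, 30 min at room temperature) served as the read-out of ARE activation in AREc32 cells treated with compounds for 24 hr at 37 deg C.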
p53 reactivation – restores transcriptional activity of mutant p53; H1299 p53-A138V BP100-luciferase reporter, luminescence, 24 h; Potency, µM (titrated, usually from 92.2 µM), for the others: top-dose activity change, positive = activation, most hits filed as activators; 0.063% of 320,000 active; AID 504706; also: potency is read from the fitted curve at half-maximal effect; % of control where 0% means no effect; nearly all actives have a fitted effect of over 45% in size
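H1299 (p53-null), stable ts p53-A138V + BP100-Luc; 1000 cells/well, Opti-MEM/10% FBS; cpd 4 pt, 1:5; 24 h, 37 deg C, 5% CO2; detection reagent 10 min RT; luminescence.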
ClpP mod – qHTS Assay for Activators of ClpP; Potency, µM (highest dose often 57.5 µM), for inactives: at the highest dose activity change, negative = active; ATP-dependent Clp protease proteolytic subunit (Bacillus subtilis (strain 168)), P80244; 1.9% of 340,000 active; purified B. subtilis ClpP, FRET peptide cleavage, 20 min; active = well fitted falling curve with a large enough effect; inconclusive = small, poorly fitted or top-dose-only effect; inactive = no such curve, though single readings can be large or run the other way; also: potency is read from the fitted curve at half-maximal effect; the source files actives as falling curves though it sought activators and does not explain the sign; nearly all actives have a fitted effect of over 65% in size
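Buffer: 100 mM Tris/HCl pH8, 100 mM KCl, 0.05% low protease BSA, 2.5% glycerol, 0.01% Tween-20. ClpP 10 microg/mL final; 20 min RT; delta FRET normalized to ADEP and DMSO controls.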
miR-21 reporter – raises the signal of a miR-21 reporter; AID 2288; 340,000 tested, under 10 active; Potency, µM (doses to about 38.3 µM), inactives show at the top dose reporter change, positive = more light; HeLa miR-21 FLuc reporter, luciferase, 48 h; active = well fitted rising curve with a large enough effect; inconclusive = small, poorly fitted or top-dose-only effect; inactive = no such curve, though single readings can be large or run the other way;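 note: % of control where 0% means no effect; miR-21 action dims this reporter so a rising signal means less miR-21 action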
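Using DMEM plus 10% FBS, HeLa miR-21-FLuc cells are incubated with test compounds (final up to about 40uM) for 48 hours; firefly luciferase signal is then imaged following reagent-mediated lysis.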
Nrf2 block – Nrf2 pathway inhibition; Potency, µM (titrated, usually from 46 µM), for the others: top-dose activity change, negative = inhibition, actives largely listed as inhibitors; AID 504444; 2.1% of 360,000 active; A549 ARE-Fluc reporter, luciferase luminescence, 18-24 h; also: potency is read from the fitted curve at half-maximal effect; % is scaled to controls: 0 for no effect and ±100 for the full control effect; nearly all actives have a fitted effect of over 60% in size
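A549 ARE_Fluc cells (5000/well, 5% FBS OPTI-MEM) pre-incubated 2 h, then treated with compounds 18-24 h at 37C/5% CO2 in concentration-response. CellTiter-Fluor viability read first; BugLite luciferase luminescence after 15 min at room temperature gives Nrf2 activity.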
* = called active by the depositor. Unless noted, calls follow the shape of the dose curve; as a rule, active = well fitted curve in the direction sought with a large enough effect; inconclusive = small, poorly fitted or top-dose-only effect, or another doubt; inactive = no such curve, though single readings can be large; an effect the other way counts as inactive or inconclusive.

Protein sequences, listed by entry. Tags and fused reporters are not part of them.
ATP-dependent Clp protease proteolytic subunit (Bacillus subtilis (strain 168)), P80244, UniProt P80244, whole entry, looked up: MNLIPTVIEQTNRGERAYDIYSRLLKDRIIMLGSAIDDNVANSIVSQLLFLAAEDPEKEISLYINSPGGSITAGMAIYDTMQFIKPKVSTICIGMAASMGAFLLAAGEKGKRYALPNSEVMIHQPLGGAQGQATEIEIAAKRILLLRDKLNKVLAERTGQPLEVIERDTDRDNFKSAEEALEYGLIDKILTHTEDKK

`CCOc1ccc(OCC)c(NS(=O)(=O)c2ccc(-c3coc(C)n3)cc2)c1` gave A549 viability -9.5%, Nrf2 activator -1.0%, ClpP mod 1.1% and miR-21 reporter 20.0%.
Cc1cccc(N2CCN(CC(O)COCc3cccs3)CC2)c1C (stereo not given) was read as A549 viability -1.2%, Nrf2 activator 0.1%, p53 reactivation -10.7%, ClpP mod 22.4µM*, miR-21 reporter 2.0% and Nrf2 block -0.6%.
For Cc1ccc(S(=O)(=O)N2CCN(c3ccc(C(F)(F)F)cc3[N+](=O)[O-])CC2)cc1 the results were A549 viability -19.8%, Nrf2 activator 0.5%, p53 reactivation -15.7%, ClpP mod 0.4%, miR-21 reporter 13.5% and Nrf2 block 16.4µM*.
`Cc1ccc(S(=O)(=O)N2CCN(c3ccc(C(=O)N4CCOCC4)cc3[N+](=O)[O-])CC2)cc1` gave A549 viability -5.0%, Nrf2 activator -0.7%, p53 reactivation -0.6%, ClpP mod 28.2µM*, miR-21 reporter 8.6% and Nrf2 block inconclusive.
For CC(C)(CNc1ccc(S(=O)(=O)C(F)(F)F)cc1[N+](=O)[O-])N1CCOCC1 the results were A549 viability 1.5%, Nrf2 activator -0.8%, p53 reactivation 14.0%, ClpP mod -0.7%, miR-21 reporter -18.8% and Nrf2 block 23.1µM*.
`CC(C)(CNc1ccc([N+](=O)[O-])cc1C#N)N1CCOCC1` gave A549 viability -17.5%, Nrf2 activator -0.2%, p53 reactivation -1.2%, ClpP mod -1.7%, miR-21 reporter -2.9% and Nrf2 block -5.2%.
Screening CNc1ccc(C=O)cc1I returned ClpP mod -5.8%.
Cc1ccc(C(=O)N(C)CC(=O)Nc2ccc(Cl)c(C(F)(F)F)c2)cc1S(=O)(=O)N1CCCCC1 was read as A549 viability inconclusive, Nrf2 activator 0.1%, p53 reactivation -0.2%, ClpP mod -1.3% and Nrf2 block 5.8µM*.
Cc1ccc(S(=O)(=O)N2CCCCC2)cc1C(=O)N(C)CC(=O)Nc1ccc(Cl)c(C(F)(F)F)c1 was read as A549 viability inconclusive, Nrf2 activator -0.6%, p53 reactivation 28.7%, ClpP mod 1.0%, miR-21 reporter -4.5% and Nrf2 block inconclusive.
For CN(CC(=O)Nc1ccc(Cl)c(C(F)(F)F)c1)C(=O)c1ccc(OCC2CCCO2)cc1 (stereo not given) the results were A549 viability inconclusive, Nrf2 activator 3.3%, p53 reactivation -2.0%, ClpP mod -8.0% and Nrf2 block 16.4µM*.
Screening Cc1onc(-c2c(F)cccc2Cl)c1C(=O)Nc1nnc(-c2ccccc2)s1 returned A549 viability -27.5%, Nrf2 activator 2.5%, p53 reactivation -0.5%, ClpP mod 31.6µM*, miR-21 reporter -3.4% and Nrf2 block inconclusive.
For Cc1onc(-c2ccccc2Cl)c1C(=O)Nc1nnc(-c2ccc(F)cc2)s1 the results were A549 viability 1.5%, Nrf2 activator -1.1%, p53 reactivation -9.1%, ClpP mod -24.3%, miR-21 reporter -9.9% and Nrf2 block 5.1%.
`CCN1C(=O)Nc2cccc3cccc1c23` gave A549 viability 1.9%, Nrf2 activator inconclusive and Nrf2 block 8.2µM*.
Screening CC1CC=CC2C1C(=O)N(Cc1ccccc1)C2c1ccoc1 (stereo not given) returned A549 viability -4.3% and Nrf2 block -7.1%.
Screening Cc1cc(C)c(N=C2C(=O)Nc3ccccc32)c(C)c1 returned A549 viability 1.6%, Nrf2 activator 5.6%, p53 reactivation 8.6%, miR-21 reporter -1.4% and Nrf2 block -16.6%.
For Cc1cccc(C)c1N=C1C(=O)Nc2ccccc21 the results were A549 viability -16.9%, Nrf2 activator -0.6%, p53 reactivation -6.9%, ClpP mod 2.3%, miR-21 reporter -2.4% and Nrf2 block 18.4µM*.

Arranged by number of heavy atoms (largest number first): some entries from above
Cc1cccc(N2CCN(CC(O)COCc3cccs3)CC2)c1C (stereo not given) was read as A549 viability -1.2%, Nrf2 activator 0.1%, p53 reactivation -10.7%, ClpP mod 22.4µM*, miR-21 reporter 2.0% and Nrf2 block -0.6%.
Screening CC1CC=CC2C1C(=O)N(Cc1ccccc1)C2c1ccoc1 (stereo not given) returned A549 viability -4.3% and Nrf2 block -7.1%.
Screening Cc1cc(C)c(N=C2C(=O)Nc3ccccc32)c(C)c1 returned A549 viability 1.6%, Nrf2 activator 5.6%, p53 reactivation 8.6%, miR-21 reporter -1.4% and Nrf2 block -16.6%.
